According to ChEMBL document CHEMBL1152029 (1997):

What was measured:
[1] = system: Mus musculus; assay: The percent increase in life span was measured using CD2F1 male mice at 200 mg/kg dose
[2] = system: Mus musculus; assay: Mean survival time of compound was measured using CD2F1 male mice in group of ten at 200 mg/kg dose on day 30
[3] = system: Mus musculus; assay: %Survival of compound was measured using CD2F1 male mice in group of ten at 200 mg/kg dose on day 30
[4] = Mean survival time of treated group(T) and Mean survival time of control group(C) was measured using CD2F1 male mice at 200 mg/kg dose

NCCCNCCSP(=O)(Oc1ccc(Cl)cc1)SCCNCCCN
ILS [1]: 170%
MST [2]: 20
Survival [3]: 40%
Ratio [4]: 1.94
